# ChEMBL document CHEMBL1134345, “Coumarin and chromen-4-one analogues as tautomerase inhibitors of macrophage migration inhibitory factor: discovery and X-ray crystallography” (J Med Chem, 2001)
# Target: T1, Macrophage migration inhibitory factor (Homo sapiens, UniProt P14174)
# T1 sequence (P14174 whole entry): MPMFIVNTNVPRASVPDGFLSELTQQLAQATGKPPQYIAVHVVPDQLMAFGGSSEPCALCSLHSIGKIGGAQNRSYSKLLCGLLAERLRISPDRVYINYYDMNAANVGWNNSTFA
# Assay: Inhibitory activity against tautomerase macrophage migration inhibitory factor (MIF)
# Summary of the method: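 Recombinant human MIF at 4 ug/mL final, in sodium phosphate buffer pH 6.0. Inhibitors were added in DMSO (1% v/v final). The reaction was started with freshly made D-dopachrome (D-DOPA oxidized with periodate, 1:2) at 0.25–0.5 mM. The A475 decrease was followed for 10 min. Initial rates were corrected for the uncatalyzed rate without MIF. Ki came from three-dimensional nonlinear regression.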
smiles,measurement,value
O=c1oc2cc(O)ccc2cc1-c1cc2ccccn2n1,Ki,500 nM
